Data: Sander's compilation of Henry's law constants (doi:10.1021/ac00070a008)

Test: Henry solubility constant Hcp at 298.15 K (mol/(m3 Pa))
Settings: reference: Li et al. (1993)

Henry solubility constant Hcp: 0.0013
Compound: CCCCOCCCC [dibutyl ether]
